This note sets out measurements from PubChem BioAssay (NCATS).

Chains of the proteins cited; added tags and fusions are not shown. Lines headed by an entry give the natural chain unless they say otherwise; changes in a name come on top.
UniProt Q99828: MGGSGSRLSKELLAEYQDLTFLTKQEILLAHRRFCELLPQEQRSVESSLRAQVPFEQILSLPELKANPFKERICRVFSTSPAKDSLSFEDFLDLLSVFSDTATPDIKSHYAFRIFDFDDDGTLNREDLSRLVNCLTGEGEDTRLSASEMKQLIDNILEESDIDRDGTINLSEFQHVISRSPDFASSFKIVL
UniProt P10635, whole entry, looked up: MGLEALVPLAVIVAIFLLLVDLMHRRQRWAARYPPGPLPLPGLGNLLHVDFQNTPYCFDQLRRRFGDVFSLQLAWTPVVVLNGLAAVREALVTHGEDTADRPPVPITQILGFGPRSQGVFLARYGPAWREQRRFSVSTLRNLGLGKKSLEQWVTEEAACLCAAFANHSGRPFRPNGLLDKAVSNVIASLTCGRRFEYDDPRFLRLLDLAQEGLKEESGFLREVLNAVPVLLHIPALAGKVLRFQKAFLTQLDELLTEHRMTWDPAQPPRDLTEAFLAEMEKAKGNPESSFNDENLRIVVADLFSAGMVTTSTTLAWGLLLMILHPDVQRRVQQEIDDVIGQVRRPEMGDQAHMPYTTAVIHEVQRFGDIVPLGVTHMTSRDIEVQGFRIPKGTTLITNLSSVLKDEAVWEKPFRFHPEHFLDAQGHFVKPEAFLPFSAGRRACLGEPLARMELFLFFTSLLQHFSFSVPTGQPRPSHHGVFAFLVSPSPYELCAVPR
UniProt P08684, whole entry, looked up: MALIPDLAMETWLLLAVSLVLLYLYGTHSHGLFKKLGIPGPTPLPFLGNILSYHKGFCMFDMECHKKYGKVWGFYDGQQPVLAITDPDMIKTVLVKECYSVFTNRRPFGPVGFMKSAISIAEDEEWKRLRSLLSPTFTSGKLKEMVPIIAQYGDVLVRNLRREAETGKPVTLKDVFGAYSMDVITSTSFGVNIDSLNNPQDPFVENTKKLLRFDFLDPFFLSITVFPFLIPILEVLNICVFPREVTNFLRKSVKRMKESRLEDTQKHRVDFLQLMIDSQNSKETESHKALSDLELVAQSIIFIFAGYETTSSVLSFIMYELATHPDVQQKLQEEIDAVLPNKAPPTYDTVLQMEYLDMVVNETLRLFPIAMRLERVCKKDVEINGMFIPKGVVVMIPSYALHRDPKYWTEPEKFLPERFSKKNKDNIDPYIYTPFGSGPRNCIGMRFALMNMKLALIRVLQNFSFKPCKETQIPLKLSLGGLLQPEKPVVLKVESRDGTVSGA

The nature of test [1]: qHTS to identify inhibitors of the type 1 interferon - major histocompatibility complex class I in skeletal muscle: primary screen against the NCATS Mechanism Interrogation Plate v5.0 (MIPE) Libary (AID 1347411).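 Also: plate controls were vehicle for no effect and reference inhibitor for full effect; nearly all actives have a fitted effect of over 65% in size.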 Particulars: iHSKM cells + IFN-b, HiBiT-tagged MHC-I luminescence, 24 h; at 45.8 µM (top of the series).
Test [2] concerns the target Calcium and integrin-binding protein 1 (Homo sapiens) (UniProt Q99828). The test is described as follows: Primary qHTS for Identification of Calcium Integrin Binding Protein 1 (CIB1) Competitor (AID 1508620).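 Also: GST tagged CIB1 binding a fluorescein labelled alphaIIb integrin peptide tracer; top concentration of the series differs between compounds; % is scaled to controls: 0 for no effect and ±100 for the full control effect.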 Particulars: CIB1-GST / FITC-alphaIIb peptide fluorescence polarization; at 114 µM (top of the series) unless noted.
The target of test [3] is Cytochrome P450 2D6 (Homo sapiens) (UniProt P10635). Nature of the test: Cytochrome P450 family 2 subfamily D member 6 (CYP2D6) small molecule antagonists: luciferase biochemical (cell-free) qHTS assay (AID 1645840; active = well fitted curve in the direction sought with a large enough effect in the repeat runs; an effect the other way counts as inactive or inconclusive; also: % is scaled to controls: 0 for no effect and ±100 for the full control effect; nearly all actives have a fitted effect of over 55% in size). In outline: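 P450-Glo CYP2D6 system: proluciferin substrate converted by enzyme to luciferin, read by luminescence proportional to activity. Enzyme-substrate mix with compound 10 min at room temperature, then NADPH regeneration 1 h before detection reagent.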

The target of test [4] is Cytochrome P450 3A4 (Homo sapiens) (UniProt P08684). Nature of the test: Cytochrome P450 family 3 subfamily A member 4 (CYP3A4) small molecule antagonists: luciferase qHTS assay (AID 1645841; active = well fitted curve in the direction sought with a large enough effect in the repeat runs; an effect the other way counts as inactive or inconclusive; also: nearly all actives have a fitted effect of over 45% in size).
Test [5] deals with Luciferin 4-monooxygenase (Photinus pyralis) (UniProt P08659). Nature of the test: Primary firefly luciferase (FLuc) qHTS assay for identification of artifact compounds. (AID 1845220).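 Also: plate controls were DMSO vehicle for no effect and no enzyme for full effect; nearly all actives have a fitted effect of over 60% in size.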 Particulars: purified firefly luciferase, luminescence, 5 min; activity change, negative = inhibition: at 54.1 µM (top of the series). In outline: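 FLuc 10 nM; luciferin 10 uM; ATP 10 uM; Tris-acetate pH 7.6, Mg-acetate 10 mM; 15 min RT preincubation; 5 min reaction; luminescence.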

Test [6] is described as follows: Primary fluorescence-based thiol-reactive (MSTI) qHTS assay for identification of artifact compounds. (AID 1845221).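 Also: thiol-reactive compounds lower the probe fluorescence signal; nearly all actives have a fitted effect of over 65% in size.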 Conditions: MSTI thiol-reactivity probe, 1 h; at 53.8 µM (top of the series). In outline: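 Reactivity toward the thiol probe MSTI (4 uM) is scored by fluorescence at Ex/Em 525/598 nm after 1 h at room temperature. Acetyl-MSTI and MSTI define the activity scale.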

The test system of test [7] is Nanoluciferase (engineered Oplophorus gracilirostris luciferase). The test is described as follows: Primary Nanoluciferase (NLuc) qHTS assay for identification of artifact compounds. (AID 1845222).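 Also: NLuc secreted into diluted conditioned medium of S16 cells; 0% = DMSO and -100% = no enzyme.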 Conditions: NLuc-conditioned medium, Nano-Glo luminescence, 5 min; at 54.1 µM (top of the series). The essentials: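 NLuc from S16 cell medium (1:55) plus test compounds, 15 min, room temperature. Luminescence after Nano-Glo (1:100) addition, 5 min.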

Test [8] can be described thus: Primary redox qHTS assay for identification of artifact compounds. (AID 1845223).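 Also: 0% = DMSO and 100% = reference compound.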 Particulars: Amplex Red/HRP redox cycling with DTT, fluorescence; at 53.8 µM (top of the series). The essentials:
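Redox-cycling detection via DTT (250 uM final) oxidation coupled to Amplex Red (25 uM)/HRP (250 mU/mL) in HBSS. 15 min preincubation plus 30 min after DTT, room temperature. Ex/Em 525/598 nm; 4-parameter Hill fit against DMSO and 10 uM DA3003.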

Test [9] in a line: qHTS drug screen for cell cycle checkpoint inhibitors in PARPi-resistant BRCA-mutant ovarian cancer cell lines. (AID 1963452; calls by dose curve). Conditions: PEO1/OlaR viability, CellTiter-Glo luminescence, 96 h; stronger effect = lower value. The essentials:
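PEO1, PEO4 and PEO1/OlaR ovarian cancer cells, 600 per well, exposed 96 h at 37C to a dilution series. Viability read by CellTiter-Glo luminescence, normalized to DMSO and empty wells; activity summarized as Z-AUC.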

The subject of a further test is CRL-7250. The test is described as follows: Cytotoxic Profiling of Annotated Libraries Using Quantitative High-Throughput Screening (AID 1296008). Also: nearly all actives have a fitted effect of over 60% in size. Also: potency is read from the fitted curve at half-maximal effect. As to max response: % is scaled to controls: 0 for no effect and ±100 for the full control effect. Particulars: Five cell lines viability, CellTiter-Glo ATP luminescence, 48-72 h; stronger effect = lower value.
Another test has as its system HEK293. The test is described as above. Conditions: Five cell lines viability, CellTiter-Glo ATP luminescence, 48-72 h; max response: stronger effect = lower value.
In the next test the test system is HaCat. The description is as above. Conditions: Five cell lines viability, CellTiter-Glo ATP luminescence, 48-72 h; stronger effect = lower value.
For another test, the system named is KB-3-1. Described as above. Conditions: Five cell lines viability, CellTiter-Glo ATP luminescence, 48-72 h, stronger effect = lower value.
A further test deals with NIH3T3. The description is as above. Particulars: Five cell lines viability, CellTiter-Glo ATP luminescence, 48-72 h; stronger effect = lower value.
A further test has as its system C33A. The test is described as follows: Primary qHTS to identify gynecologic anti-cancer compounds using libraries of approved drugs and bioactive compounds (AID 1345084). Also: % is scaled to controls: 0 for no effect and ±100 for the full control effect; nearly all actives have a fitted effect of over 55% in size. Particulars: Gynecologic cancer cell panel viability, ATPlite luminescence, 48 h; at 57.5 µM (top of the series) unless noted. In outline: (§1)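 Measured: luminescence after ATPlite addition (15 min, RT). Exposure: 48 h, 37 C, 5% CO2.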

A further test relates to CAOV3. Described as above. Conditions: Gynecologic cancer cell panel viability, ATPlite luminescence, 48 h; at 57.5 µM (top of the series) unless noted. The essentials: as §1
Another test relates to CASKI. Described as above. Particulars: Gynecologic cancer cell panel viability, ATPlite luminescence, 48 h; at 57.5 µM (top of the series) unless noted. The essentials:
as §1

Another test concerns HeLa. The test is described as above. Conditions: Gynecologic cancer cell panel viability, ATPlite luminescence, 48 h; at 57.5 µM (top of the series) unless noted. In outline:
as §1

The test system of another test is OV90. The test is described as above. Particulars: Gynecologic cancer cell panel viability, ATPlite luminescence, 48 h; at 57.5 µM (top of the series) unless noted. In outline:
as §1

The test system of the next test is SKOV3. The test is described as above. Conditions: Gynecologic cancer cell panel viability, ATPlite luminescence, 48 h; at 57.5 µM (top of the series) unless noted. In outline:
as §1

The next test deals with Tov-21-G. The test is described as above. Particulars: Gynecologic cancer cell panel viability, ATPlite luminescence, 48 h; at 57.5 µM (top of the series) unless noted. The essentials: as §1
The next test concerns Tov112D. Described as above. Particulars: Gynecologic cancer cell panel viability, ATPlite luminescence, 48 h; at 57.5 µM (top of the series) unless noted. In outline:
as §1

The structures appear in SMILES notation. The entries are a selection whose mix differs from that of the whole data set. Results filed as inconclusive are left out. Calls of active or inactive are those of the source. Unless noted, calls follow the shape of the dose curve; as a rule, active = well fitted curve in the direction sought with a large enough effect; inconclusive = small, poorly fitted or top-dose-only effect, or another doubt; inactive = no such curve, though single readings can be large; an effect the other way counts as inactive or inconclusive.

For the molecule `CN(C)C1(c2ccccc2)CCC2(CC1)OCCc1c2[nH]c2ccc(F)cc12` (configuration not stated), the activity change, negative = inhibition in [1] was inactive: 18.6%; in test [2], inactive: -4.57%; in test [5], inactive: -7.01%. Moreover, the Potency entry in test [3] and in test [4] was “inactive” each time. Further, the activity change, negative = thiol reactive in test [6] was inactive: -7.53%. Also, the activity, negative = inhibition in test [7] is inactive: -6.59%. Besides, the redox activity (% of DA3003) in test [8] was inactive: -0.504%. Further, the Z-AUC in test [9] was inactive: 0.158. The max response is inactive: 1.33% with CRL-7250, inactive: -13.1% in the test on HaCat, inactive: -30.5% in the test on KB-3-1 and inactive: -4.8% in the test on NIH3T3. For the same molecule, the Potency in the test with HEK293 is active: 0.411 µM. Moreover, the activity change, negative = cytotoxicity in the test with C33A was inactive: 0.38%; with CAOV3, inactive: 24.4%; with CASKI, inactive: -23.2%; in the test on HeLa, inactive: -27.7%; in the test with OV90, inactive: -13.6%; with SKOV3, inactive: 0%. Moreover, the activity change, negative = cytotoxicity was inactive: 4.79% in the test with Tov-21-G and inactive: -28.8% in the test with Tov112D.
